# From patent US20250319095A1, “USE OF BENZO[…] INCREASE SENSITIVITY TO […] A CHRONIC SSRI REGIMEN” (Compass Pathfinder Limited, priority 2020, published 2025)
# Sequences of proteins named here, by UniProt entry; tags and fusion partners are left off.
# UniProt P35363, whole entry: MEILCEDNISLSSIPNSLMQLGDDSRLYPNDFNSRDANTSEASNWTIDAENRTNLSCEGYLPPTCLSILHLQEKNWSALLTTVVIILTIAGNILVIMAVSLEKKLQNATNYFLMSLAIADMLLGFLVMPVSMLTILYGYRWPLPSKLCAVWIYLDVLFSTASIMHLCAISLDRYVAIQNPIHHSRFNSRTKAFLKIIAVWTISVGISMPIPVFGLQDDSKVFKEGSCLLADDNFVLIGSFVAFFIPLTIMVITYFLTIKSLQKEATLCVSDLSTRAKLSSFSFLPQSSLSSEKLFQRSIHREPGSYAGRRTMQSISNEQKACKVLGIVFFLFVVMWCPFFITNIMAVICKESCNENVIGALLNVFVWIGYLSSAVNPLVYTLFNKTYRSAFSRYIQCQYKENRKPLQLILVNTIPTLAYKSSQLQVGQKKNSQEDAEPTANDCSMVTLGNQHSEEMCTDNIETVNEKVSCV
# Columns and labels:
# [1] = oral dose equivalence; cited from earlier work
# 5HT2A = target: T1, 5HT2A (Mus musculus, UniProt P35363); assay: [3H]MDL100907 binding in frontal cortical membranes (5HT2A Kd and Bmax); conditions: 24 h post final administration
# T1 construct: homogenates were prepared from frontal cortices sampled from groups E and F; from tissue; host or cells: mouse frontal cortex membranes (homogenate)
# Experimental: To prepare the homogenate, frontal cortices from each animal were homogenized individually in 40 volumes (w/v) of ice cold assay buffer using a tight-fitting glass/Teflon homogenizer and centrifuged at 39,500×g for 10 min. The supernatant was discarded, and the pellet re-suspended in 40 volumes (w/v) of assay buffer and the tissue washed by centrifugation two more times. The final pellet was re-suspended in ice-cold assay buffer to 6.25 mg weight wet of tissue/ml and used immediately in the binding assay. Aliquots of final membrane preparations were also stored at −80 C until required for protein determination. All centrifugations will be carried out at 4° C.
# To examine binding, the frontal cortical membranes (400 μl; equivalent to 2.5 mg wet weight of tissue/tube) were incubated with 50 μl of [3H] MDL 100907 (8 concentrations: 0.025, 0.05, 0.1, 0.2, 0.4, 0.8, 1.6, 3.2 nM) and either 50 μl of buffer (total binding) or 50 μl of 10 μM ketanserin (to define nonspecific binding) for 60 min at 25 C. […]
# Membrane bound radioactivity was recovered by filtration under vacuum through Skatron 11731 filters, presoaked in 0.5% polyethylenimine (PEI) using a Skatron cell harvester. Filters were rapidly washed with ice cold wash buffer (wash setting 9,9,0) and radioactivity determined by liquid scintillation counting (1 ml Packard MV Gold scintillator). […]
smiles,measurement,setting,value
"CN1C(=O)CN=C(c2ccccc2)c2cc(Cl)ccc21 [Diazepam, diazepam]",Relative Potency,[1],5 mg
same,"5HT2A binding, change with diazepam pretreatment",5HT2A,trend increase
